Here are results for one compound from PMC6461108, “A catalytic protein–proteomimetic complex: using aromatic oligoamide foldamers as activators of RNase S” (Chemical Science, 2019).

The chains behind the UniProt entries cited, without tags or fusion partners. Residues count along the entry.
UniProt P61823, 48-150 limits assumed: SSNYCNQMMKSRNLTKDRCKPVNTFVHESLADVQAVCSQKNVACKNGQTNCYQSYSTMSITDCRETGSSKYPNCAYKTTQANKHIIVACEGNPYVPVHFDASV

Assay [1] has as its target p53/hDM2 interaction (Homo sapiens, UniProt Q00987). The experiment in a line: Fluorescence anisotropy competition assay against p53/hDM2. The following applies: read-out: IC50, fluorescence anisotropy competition against p53/hDM2 interaction; FITC-p53 15-31 tracer, 50 mM phosphate pH 7.5, 200 mM NaCl, 0.02 mg/mL BSA. In general terms: In fluorescence polarisation assays a small probe gives low polarisation when free and higher when bound to something large.

In assay [2] the target is RNase S-protein (Bos taurus, UniProt P61823). The experiment in a line: RNA degradation assay (EtBr fluorescence), reactivation of S-protein. The class given is biochemical, bovine. Particulars: 100 µM compound, 0.05 µM S-protein, 45 min, 25 °C, Tris pH 6.5.

`CC(C)Oc1cc(NC(=O)[C@@H](Cc2ccccc2)NC(=O)c2ccc(N)c(OCc3ccc(C(C)(C)C)cc3)c2)ccc1C(=O)NCC(=O)O`: the IC50 in assay [1] was determined as 8.3 µM. The “% remaining fluorescence (100 µM)” value in assay [2] is on record as 47%.
